## Ab-14 light chain CDR variants: yeast mating affinities

Values reported by Engelhart et al. 2022, doi:10.1038/s41597-022-01779-4 (FLAb copy).

All variants were tested on one target, the spike HR2 peptide PDVDLGDISGINAS (SARS-CoV-2).

Parent: Ab-14, a human scFv built as VH, three GGGGS repeats, VL. Only the CDRs of the light chain vary.
VH: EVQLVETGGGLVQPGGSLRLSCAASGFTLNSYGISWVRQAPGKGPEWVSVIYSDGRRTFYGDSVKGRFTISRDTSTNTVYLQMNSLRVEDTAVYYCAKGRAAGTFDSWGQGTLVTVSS
VL: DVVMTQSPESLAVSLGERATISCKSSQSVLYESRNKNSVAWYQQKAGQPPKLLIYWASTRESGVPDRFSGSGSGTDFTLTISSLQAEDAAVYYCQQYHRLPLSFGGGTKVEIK

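Phage display of a naive human antibody library on the peptide gave the parent. In library AAYL50, one, two or three CDR residues were substituted; doubles and triples were drawn at random. The scFvs were displayed on barcoded MATa yeast, the peptide on MATalpha yeast. Mating (16 h, 30 °C) was followed by selection of diploids and sequencing of their barcodes. Scores were corrected for input abundance and mapped to Kd with protein pairs of known affinity run in the same pool. The assay was run in three technical replicates.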

Each variant is given by its three light chain CDRs, as the data file delimits them; those of the parent are KSSQSVLYESRNKNSVA, WASTRES, QQYHRLPLS.
Values are log10 of the apparent Kd in nM; lower means stronger binding.
Where no diploid with the target was found in that replicate, the entry reads "nd": below detection, most likely a poor binder, though not proof of it.
Nonspecific signal, from three strains lacking the peptide, appeared in 18% of pairings of library AAYL50, centred on 4.19 (5% of these signals below 2.99); values are not corrected for it. The control count says in how many pairings with the empty strains this scFv gave a signal, with their mean in brackets.
Parent in this assay: reference entry 0.65, copy in this library 1.68.

CDR-L1	CDR-L2	CDR-L3	log10 Kd (nM) by replicate	empty controls
KSSQSVLYDSRNKNSVA	WAQTRES	QQYHRLTLS	2.37 / 1.58 / 2.39	0/9
KSSGSVLYEARNKNSVA	WYSTRES	QQYHRLPLS	nd / nd / nd	1/9 (4.19)
KSSQSVLYESRNQNSHA	WASIRES	QQYHRLPLS	nd / 3.72 / nd	3/9 (3.30)
KSSQSVLYESRNTRSVA	WASTRES	QQYHRLPLS	0.69 / 0.86 / 0.81	2/9 (4.02)
KSSQSVLYESRNKNSAA	WASTRES	QQAHRSPLS	nd / nd / nd	0/9
KSSQSVLYESRNRNQVA	WASTRES	QQYHRLPQS	5.20 / 5.58 / 4.45	2/9 (4.45)
KSSQSVLYESRNKNSVA	WAVTRES	QQYCRTPLS	nd / nd / nd	0/9
KSSQPVLYETRNKNSFA	WASTRES	QQYHRLPLS	nd / nd / nd	1/9 (3.58)
KSMQSVLYESRNKNSVA	WASTREP	QQYHRLPLS	0.85 / 1.04 / 0.97	2/9 (4.51)
KSSQSWLYESRNKNSVA	WASTRES	QDYHRLPLS	0.37 / 0.72 / 0.70	2/9 (5.29)
KSSESVLYESRNKNSVA	WASTRES	QKYHRLCLS	2.61 / 1.73 / 2.08	1/9 (5.40)
KSSQSVLYEMRNKNVVA	WASTRES	QQYHELPLS	nd / 5.37 / nd	3/9 (4.27)
KSSQSVAYESRNKNSVA	WASTRES	QQYGRLPLS	3.02 / nd / 4.17	0/9
KSSQSVLYESRLKNSVA	WASPRES	QQYHRLPLS	nd / nd / nd	0/9
KSSESVLYESRNKNSVY	WASTRES	MQYHRLPLS	nd / nd / nd	0/9
KSSQSVLYERRPKHSVA	WASTRES	QQYHRLPLS	nd / nd / nd	1/9 (3.38)
KSSKSVLYESRNKNSVA	WRSTQES	QQYHRLPLS	3.99 / nd / 6.12	3/9 (4.44)
KSSQSVLLESRNKNSSA	WASTRES	QQYHRLELS	nd / nd / nd	2/9 (3.57)
YSSQSVLRESRNKNSVN	WASTRES	QQYHRLPLS	nd / nd / nd	0/9
KSSQSVQYESRNRNSVA	WASTRES	QQYHRLPSS	nd / 3.19 / nd	0/9
KSSQSMTYESRNKNSVA	WASTRDS	QQYHRLPLS	0.88 / 0.98 / 0.98	3/9 (4.04)
KSSQSVLYESRNSIYVA	WASTRES	QQYHRLPLS	2.36 / 3.16 / 4.87	3/9 (4.55)
KSSQSVLYESRNKNSVA	WAMTRES	FQYHRLPLH	nd / nd / nd	0/9
KSSQSVLYESRNVNSVA	WASTRES	QQYFRLPLS	1.05 / 1.37 / 0.86	1/9 (4.91)
KSSQEVLYESRNKNSCA	WASTRES	IQYHRLPLS	nd / 2.56 / nd	0/9
KSSQSVLYESRNKVSVA	WAFTRES	DQYHRLPLS	nd / nd / nd	1/9 (4.22)
KSSQLVLYEHRNKNSVA	WASTRES	QYYHRLPLS	3.13 / nd / nd	0/9
KSSQSVLYESRNKNVVG	WQSTRES	QQYHRLPLS	4.84 / 4.08 / nd	3/9 (4.03)
KSSQSVLYESANKNSVA	WASTREG	QQYDRLPLS	2.04 / 1.74 / 4.02	0/9
KSSQSVLYESRNKNSVA	KASYRES	QQYHGLPLS	1.25 / 1.11 / 2.13	0/9
KSSQSVLYESRNKNSVA	WPSTRES	QQYYRLPLS	4.32 / nd / nd	1/9 (4.31)
KSSQSVLYEHRNKNSVA	WCSTRES	QQYHRLPLS	5.27 / nd / 3.94	0/9
KSSQSVLYESRNKNSEA	WASTRES	QQHVRLPLS	nd / nd / nd	6/9 (4.81)
KSSQSVLYESRNKNSVA	WASSRES	QQYHRLPLS	1.68 / 1.58 / 1.71	0/9
KSSQSVLYESRNKNSSA	WASTRES	QQYHRLPKS	6.02 / nd / 5.91	3/9 (4.14)
KSSQSVLKMSRNTNSVA	WASTRES	QQYHRLPLS	2.21 / 2.18 / 2.65	2/9 (4.64)